Data on one substance can be found in patent publication EP0308189B1, “Skin cleansing toilet bar with low moisture content” (THE PROCTER & GAMBLE COMPANY, priority 1987, dated 1989).

The data set relates to skin epidermis.

With “sodium coco glyceryl ether sulfonate [AGS]”, the “Relative Skin Barrier Penetration Value” is given as 9; the “Total mg Water Penetrating the Skin in 24 Hours” value was found to be 22.8 ± 7.9 mg; the “mildness to the skin” value was “mild and relatively nonirritating to the skin”.
